Laboratory results taken from paper PMC5808195 (Frontiers in Pharmacology, 2018).
Counter-ions that a name gives are not always drawn.

Sequences of proteins named here, by UniProt entry; tags and fusion partners are left off.
UniProt P31390, whole entry: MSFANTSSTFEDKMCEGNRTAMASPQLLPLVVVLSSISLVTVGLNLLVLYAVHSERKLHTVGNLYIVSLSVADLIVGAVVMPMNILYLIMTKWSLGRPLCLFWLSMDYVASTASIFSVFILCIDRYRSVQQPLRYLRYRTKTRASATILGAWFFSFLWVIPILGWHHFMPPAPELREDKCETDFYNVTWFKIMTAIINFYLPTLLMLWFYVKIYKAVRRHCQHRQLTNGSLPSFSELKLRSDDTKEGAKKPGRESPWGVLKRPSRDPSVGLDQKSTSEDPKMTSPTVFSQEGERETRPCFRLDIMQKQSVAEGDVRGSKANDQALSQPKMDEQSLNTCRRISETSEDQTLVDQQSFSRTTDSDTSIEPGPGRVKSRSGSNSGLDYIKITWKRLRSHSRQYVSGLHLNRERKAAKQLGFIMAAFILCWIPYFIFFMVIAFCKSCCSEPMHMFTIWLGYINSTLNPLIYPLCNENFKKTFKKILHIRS

What was measured:
[1] = molecular target: T1, rat cerebral neuronal membranes (histamine H1 binding sites) (Rattus norvegicus, UniProt P31390); assay: Competitive displacement of [^3H]pyrilamine binding, rat cerebral neuronal membranes; set-up: native receptors contained in rat cerebral neuronal membranes; from tissue; host or cells: cerebral tissue of male Wistar rats, membrane fraction (40,000 x g pellet)
D107A-HRH1 = settings: ref Ohta et al., 1994; Wieland et al., 1999; Bruysters et al., 2004; cited from earlier work
[2] = molecular target: T1, rat cerebral neuronal membranes (histamine H1 binding sites)

Row | Ki [1] | displacement of specific [^3H]pyrilamine binding (in words) ([1]; rat cerebral neuronal membranes, 20 nM [^3H]pyrilamine) | Molecule | affinity of mutant receptor D107A-HRH1 (D107A-HRH1) | maximum number of binding sites (Bmax) ([2]; mean ± SEM) | Kd ([2]; read-out: dissociation constant (Kd), mean ± SEM, n = 3)
1 | 5.89 ± 1.88 nM | concentration-dependent inhibition | COc1ccc(CN(CCN(C)C)c2ccccn2)cc1 [Pyrilamine, pyrilamine maleate] | low affinity |  | 
2 |  |  | [^3H]pyrilamine |  | 0.151 ± 0.0128 pmol/mg protein | 9.76 ± 2.04 nM
